Measured values from paper PMC9463526, “Simultaneous determination of LY3214996, abemaciclib, and M2 and M20 metabolites in human plasma, cerebrospinal fluid, and brain tumor by LC-MS/MS” (Journal of Pharmaceutical Analysis, 2022).

Test: Analyte stability in brain homogenate
Type: physicochemical, human
Details: 39 days
Description: The stability of the analytes was studied under various storage and processing conditions. […] Short- and long-term stability studies of all analytes were conducted in human blank plasma and brain homogenate under several storage conditions. Analyte stability in biological matrices was analyzed using freshly prepared calibration standards and QC samples. The percentage difference between the stability and freshly processed QC was also assessed. Re-injection reproducibility was evaluated within the sample stability period in the autosampler. Analytes were considered stable if the accuracy at each level was ±15.0% of the nominal value. Additionally, the difference from corresponding comparison QC samples must be within ±15.0%.

Long-term stability (−20 °C), Accuracy (HQC 400.0 nM): 108.7%
Long-term stability (−20 °C), Accuracy (LQC 0.6 nM): 103.1%
Structure (SMILES): CCN1CCN(Cc2ccc(Nc3ncc(F)c(-c4cc(F)c5nc(C)n(C(C)C)c5c4)n3)nc2)CC1 [Abemaciclib]
